Earlier results, collected in paper PMC10175687, “Population pharmacokinetic analysis and dosing regimen optimization of teicoplanin in critically ill patients with sepsis” (Frontiers in Pharmacology, 2023).

Conditions: previously published PPK model; ref Wi et al., 2017; cited from earlier work
Text: This difference was expected, since factors such as endothelial damage, increased capillary permeability, compounded by a large amount o ...

teicoplanin
V1: 15.7 L | V2: 71.7 L | typical value of CL: 0.95 L/h
